The values that follow come from patent publication US20250368735A1 (AKESO BIOPHARMA, published 2025).

As a reminder, the EC50 is the concentration at which the effect is half-maximal. Read a low EC50 as an effect from little substance. What is called Kd is the free concentration of one partner at which half of the binding sites on the other are occupied at equilibrium, for simple one-to-one binding. Lower therefore signals tighter binding. One may read the koff as the first-order rate constant of dissociation. Low values mean slow dissociation, high ones fast dissociation. The term kon denotes the second-order rate constant of association.

Experiment [1] addresses T1, human CLDN18.2 (ELISA coating antigen) (human, UniProt P56856-2 1-261, limits assumed).
T1 construct: also called antigen human CLDN18.2
The experiment can be described thus: indirect ELISA, coated human CLDN18.2 2 µg/mL. The procedure:
After blocking, the ELISA plate was washed 3 times with PBST. The ELISA plate containing the test antibodies was incubated at 37° C. for 30 min and then washed 3 times with PBST. […] The ELISA plate was put into a microplate reader immediately, and the OD value of each well in the ELISA plate was read at 450 nm. The data were analyzed and processed by SoftMax Pro 6.2.1.
Background: ELISA stands for enzyme-linked immunosorbent assay.

In experiment [2] the target is T2, CLDN18.2 on the cell membrane surface (CHO-K1-CLDN18.2 cells, CHO-K1-CLDN18.2-CD47 cells, CHO-K1-hClaudin18.2 … (human, UniProt P56856-2 1-261)).
T2 construct: whole, on cells; also called human Claudin18.2
The experiment is described as follows: flow cytometry (FACS) on CHO-K1-CLDN18.2-CD47 cells, PE anti-human IgG Fc.

The next experiment addresses T3, CLDN18.2 His (human, UniProt P56856-2 1-261, limits assumed).
T3 construct: also called antigen CLDN18.2 His; human CLDN18.2; not shown: His tag
The experiment can be described thus: BLI (Fortebio Octet), antibody on AHC sensor, CLDN18.2 His 6.25-100 nM, 1:1 fit. The procedure: The affinity constant of the antibody for human CLDN18.2 and CD47 ECD-His was determined using a Fortebio Octer molecular interaction instrument. The sample dilution buffer was PBS (0.02% Tween-20, 0.1% BSA, pH 7.4). The method for detecting the affinity of the antibody for human CLDN18.2 is as follows. The antibody at 20 nM was immobilized on an AHC sensor for 60 s. The sensor was equilibrated in a buffer for 60 s, and the binding of the immobilized antibody on the sensor to CLDN18.2 His at concentrations of 6.25-100 nM (two-fold dilution) was determined for 180 s. The protein was dissociated in the buffer for 360 s. The method for detecting the affinity of the antibody to human CD47 ECD-His is as follows. The antibody at 30 nM was immobilized on an AHC sensor for 120 s. The sensor was equilibrated in a buffer for 60 s, and the binding of the immobilized antibody on the sensor to the protein CD47 ECD-His at concentrations of 4.94-400 nM (three-fold dilution) was determined for 50 s. The protein was dissociated in the buffer for 120 s. The shaking speed of the sample plate was 1000 rpm, the temperature was 30° C., and the frequency was 5.0 Hz. The data were analyzed by 1:1 model fitting to obtain affinity constants. The data acquisition software was Fortebio Data Acquisition 12.0, and the data analysis software was Fortebio Data Analysis HT 12.0.
A general note: Biolayer interferometry detects binding as a change in optical thickness at a sensor tip.

The target in experiment [3] is T2, CLDN18.2 on the cell membrane surface …. The experiment is described as follows: flow cytometry (FACS) on CHO-K1-CLDN18.2 cells, PE anti-human IgG Fc.

B1: 8C5.1H3L3 (antibody, IgG1, V domains shown)
VH: EVQLVESGGGLVKPGGSLRLSCAASGFTFSNSAVSWVRQAPGKGLEWVSSITSGVSYTYYADSVKGRFTISRDNAKNSLYLQMNSLRAEDTAVYYCTRQFKGNALDYWGQGTSVTVSS
VL: DIVMTQSPSSLSVSPGERVTISCKSSQSLLNSGNQKNYLAWYQQKPGQPPKLLIYWASTRESGVPDRFSGSGSGTDFTLTISSLQAEDVAVYYCQNDYFYPLTFGAGTKLELKR
For the molecule B1, in experiment [1], the EC50 is 0.011 nM. For the same molecule, the midpoint of the response in experiment [2], the EC50, lay at 1.22 nM. In the experiment with CLDN18.2 His, binding was characterised by a dissociation constant (Kd) of 1.06 nM, the koff is 5.27e-05 s⁻¹ and the on-rate (kon) was 49800 M⁻¹ s⁻¹. In experiment [3], the EC50 worked out at 4.44 nM.
